Measurements from article PMC12102759 (Protein Science : A Publication of the Protein Society, 2025).

Tested on: AP2M1 MU
Assay type: binding, human

Row | Substance | PSSM value of the substitution (DMS by phage display) | PSSM value of the substitution, averaged over the two overlapping peptides
1 | QVVSDIDYVPLKSATA V9W (QVVSDIDYWPLKSATA) | 0 | 
2 | VSDIDYVPLKSATA(averaged) D5H (VSDIHYVPLKSATA) |  | 0.008717
3 | QVVSDIDYVPLKSATA K12Y (QVVSDIDYVPLYSATA) | 0.007432 | 
4 | VSDIDYVPLKSATAIT V1L (LSDIDYVPLKSATAIT) | 0.0001768 | 
5 | VSDIDYVPLKSATA(averaged) S11M (VSDIDYVPLKMATA) |  | 0
6 | QVVSDIDYVPLKSATA A16D (QVVSDIDYVPLKSATD) | 0.006462 | 
7 | VSDIDYVPLKSATAIT A14E (VSDIDYVPLKSATEIT) | 0 | 
8 | QVVSDIDYVPLKSATA T15Y (QVVSDIDYVPLKSAYA) | 0.003284 | 
9 | VSDIDYVPLKSATA(averaged) I4M (VSDMDYVPLKSATA) |  | 0.0004977
10 | QVVSDIDYVPLKSATA A14G (QVVSDIDYVPLKSGTA) | 0 | 
11 | VSDIDYVPLKSATAIT V7W (VSDIDYWPLKSATAIT) | 0.0003888 | 
12 | VSDIDYVPLKSATAIT S11P (VSDIDYVPLKPATAIT) | 0.01447 | 
13 | VSDIDYVPLKSATA(averaged) I4D (VSDDDYVPLKSATA) |  | 0.0001019
14 | VSDIDYVPLKSATA(averaged) L9S (VSDIDYVPSKSATA) |  | 0
15 | QVVSDIDYVPLKSATA I6L (QVVSDLDYVPLKSATA) | 0 | 
16 | VSDIDYVPLKSATA(averaged) V7W (VSDIDYWPLKSATA) |  | 0.0001944
17 | VSDIDYVPLKSATA(averaged) S11D (VSDIDYVPLKDATA) |  | 0.4575
18 | QVVSDIDYVPLKSATA L11K (QVVSDIDYVPKKSATA) | 0 | 
19 | VSDIDYVPLKSATA(averaged) I4V (VSDVDYVPLKSATA) |  | 0.0003603
20 | VSDIDYVPLKSATA(averaged) A14A |  | 0.003685
21 | VSDIDYVPLKSATAIT K10V (VSDIDYVPLVSATAIT) | 0.0002426 | 
22 | VSDIDYVPLKSATA(averaged) V7G (VSDIDYGPLKSATA) |  | 0
23 | QVVSDIDYVPLKSATA V9R (QVVSDIDYRPLKSATA) | 0 | 

Row | Substance | PSSM value of the substitution (DMS by phage display) | PSSM value of the substitution, averaged over the two overlapping peptides
24 | VSDIDYVPLKSATAIT T13E (VSDIDYVPLKSAEAIT) | 0.0395 | 
25 | VSDIDYVPLKSATA(averaged) L9Q (VSDIDYVPQKSATA) |  | 0
26 | VSDIDYVPLKSATA(averaged) D3L (VSLIDYVPLKSATA) |  | 0.07101
27 | VSDIDYVPLKSATAIT A14K (VSDIDYVPLKSATKIT) | 0 | 
28 | QVVSDIDYVPLKSATA K12S (QVVSDIDYVPLSSATA) | 0.7818 | 
29 | VSDIDYVPLKSATA(averaged) D3E (VSEIDYVPLKSATA) |  | 0.0155
30 | VSDIDYVPLKSATAIT D5I (VSDIIYVPLKSATAIT) | 0.02926 | 
31 | VSDIDYVPLKSATAIT A14Q (VSDIDYVPLKSATQIT) | 0 | 
32 | QVVSDIDYVPLKSATA L11V (QVVSDIDYVPVKSATA) | 0 | 
33 | VSDIDYVPLKSATA(averaged) S11V (VSDIDYVPLKVATA) |  | 0.007984
34 | VSDIDYVPLKSATA(averaged) V1P (PSDIDYVPLKSATA) |  | 0.005836
35 | VSDIDYVPLKSATAIT S2G (VGDIDYVPLKSATAIT) | 0.0003628 | 
36 | VSDIDYVPLKSATA(averaged) V1L (LSDIDYVPLKSATA) |  | 8.8387e-5
37 | QVVSDIDYVPLKSATA K12I (QVVSDIDYVPLISATA) | 9.01e-5 | 
38 | VSDIDYVPLKSATA(averaged) Y6W (VSDIDWVPLKSATA) |  | 0
39 | QVVSDIDYVPLKSATA V3A (QVASDIDYVPLKSATA) | 0 | 
40 | VSDIDYVPLKSATA(averaged) A12L (VSDIDYVPLKSLTA) |  | 0.1234
41 | VSDIDYVPLKSATAIT I4S (VSDSDYVPLKSATAIT) | 0.000103 | 
42 | QVVSDIDYVPLKSATA V2I (QIVSDIDYVPLKSATA) | 0.1139 | 
43 | QVVSDIDYVPLKSATA V2P (QPVSDIDYVPLKSATA) | 0.005944 | 
44 | VSDIDYVPLKSATAIT L9F (VSDIDYVPFKSATAIT) | 0 | 
45 | VSDIDYVPLKSATAIT I4Q (VSDQDYVPLKSATAIT) | 0 | 
46 | VSDIDYVPLKSATA(averaged) A14V (VSDIDYVPLKSATV) |  | 0.01963

Row | Substance | PSSM value of the substitution (DMS by phage display) | PSSM value of the substitution, averaged over the two overlapping peptides
47 | VSDIDYVPLKSATAIT S11D (VSDIDYVPLKDATAIT) | 0.00113 | 
48 | VSDIDYVPLKSATA(averaged) T13E (VSDIDYVPLKSAEA) |  | 0.02009
49 | VSDIDYVPLKSATAIT V1P (PSDIDYVPLKSATAIT) | 0.003868 | 
50 | VSDIDYVPLKSATA(averaged) V1S (SSDIDYVPLKSATA) |  | 0.003253
51 | QVVSDIDYVPLKSATA A14Y (QVVSDIDYVPLKSYTA) | 0 | 
52 | QVVSDIDYVPLKSATA D5Y (QVVSYIDYVPLKSATA) | 0 | 
53 | VSDIDYVPLKSATAIT D5Q (VSDIQYVPLKSATAIT) | 0.005783 | 
54 | VSDIDYVPLKSATAIT A12Q (VSDIDYVPLKSQTAIT) | 0 | 
55 | VSDIDYVPLKSATAIT K10S (VSDIDYVPLSSATAIT) | 0.02255 | 
56 | QVVSDIDYVPLKSATA A14S (QVVSDIDYVPLKSSTA) | 0.0002239 | 
57 | QVVSDIDYVPLKSATA V3D (QVDSDIDYVPLKSATA) | 0.0002899 | 
58 | VSDIDYVPLKSATAIT T13T | 0.003813 | 
59 | QVVSDIDYVPLKSATA K12D (QVVSDIDYVPLDSATA) | 0 | 
60 | QVVSDIDYVPLKSATA D5A (QVVSAIDYVPLKSATA) | 0.03762 | 
61 | VSDIDYVPLKSATAIT Y6P (VSDIDPVPLKSATAIT) | 0 | 
62 | QVVSDIDYVPLKSATA D7W (QVVSDIWYVPLKSATA) | 0.0003554 | 
63 | VSDIDYVPLKSATA(averaged) K10R (VSDIDYVPLRSATA) |  | 0.0108
64 | QVVSDIDYVPLKSATA I6N (QVVSDNDYVPLKSATA) | 7.156e-5 | 
65 | QVVSDIDYVPLKSATA A14R (QVVSDIDYVPLKSRTA) | 0 | 
66 | VSDIDYVPLKSATA(averaged) V1T (TSDIDYVPLKSATA) |  | 0.005968
67 | VSDIDYVPLKSATAIT Y6F (VSDIDFVPLKSATAIT) | 0 | 
68 | VSDIDYVPLKSATAIT I15K (VSDIDYVPLKSATAKT) | 0.02187 | 
69 | VSDIDYVPLKSATAIT L9W (VSDIDYVPWKSATAIT) | 0.344 | 

Row | Substance | PSSM value of the substitution (DMS by phage display) | PSSM value of the substitution, averaged over the two overlapping peptides
70 | VSDIDYVPLKSATAIT A14L (VSDIDYVPLKSATLIT) | 0.00137 | 
71 | QVVSDIDYVPLKSATA L11Q (QVVSDIDYVPQKSATA) | 0 | 
72 | QVVSDIDYVPLKSATA A16R (QVVSDIDYVPLKSATR) | 0.0005157 | 
73 | QVVSDIDYVPLKSATA L11G (QVVSDIDYVPGKSATA) | 0 | 
74 | VSDIDYVPLKSATA(averaged) L9G (VSDIDYVPGKSATA) |  | 0
75 | QVVSDIDYVPLKSATA S13F (QVVSDIDYVPLKFATA) | 0.01018 | 
76 | VSDIDYVPLKSATAIT V1M (MSDIDYVPLKSATAIT) | 0.0003154 | 
77 | QVVSDIDYVPLKSATA T15M (QVVSDIDYVPLKSAMA) | 0.3725 | 
78 | VSDIDYVPLKSATAIT D5D | 0.001041 | 
79 | VSDIDYVPLKSATA(averaged) S2P (VPDIDYVPLKSATA) |  | 0.05269
80 | VSDIDYVPLKSATAIT S11M (VSDIDYVPLKMATAIT) | 0 | 
81 | QVVSDIDYVPLKSATA S4R (QVVRDIDYVPLKSATA) | 0.0002135 | 
82 | VSDIDYVPLKSATA(averaged) V7D (VSDIDYDPLKSATA) |  | 0
83 | VSDIDYVPLKSATAIT D3D | 0.004361 | 
84 | VSDIDYVPLKSATAIT A14Y (VSDIDYVPLKSATYIT) | 0 | 
85 | VSDIDYVPLKSATAIT V1W (WSDIDYVPLKSATAIT) | 0.1483 | 
86 | VSDIDYVPLKSATA(averaged) V7R (VSDIDYRPLKSATA) |  | 0
87 | VSDIDYVPLKSATA(averaged) V7N (VSDIDYNPLKSATA) |  | 0
88 | VSDIDYVPLKSATAIT A14S (VSDIDYVPLKSATSIT) | 0.00551 | 
89 | VSDIDYVPLKSATA(averaged) Y6P (VSDIDPVPLKSATA) |  | 0
90 | QVVSDIDYVPLKSATA D7S (QVVSDISYVPLKSATA) | 0.001097 | 
91 | VSDIDYVPLKSATA(averaged) K10G (VSDIDYVPLGSATA) |  | 0.001749
